The values that follow come from ChEMBL document CHEMBL3638407, “Serine/threonine kinase inhibitors” (2014).

Amino acid sequences for entries named in this document (tags omitted).
UniProt P28482, whole entry: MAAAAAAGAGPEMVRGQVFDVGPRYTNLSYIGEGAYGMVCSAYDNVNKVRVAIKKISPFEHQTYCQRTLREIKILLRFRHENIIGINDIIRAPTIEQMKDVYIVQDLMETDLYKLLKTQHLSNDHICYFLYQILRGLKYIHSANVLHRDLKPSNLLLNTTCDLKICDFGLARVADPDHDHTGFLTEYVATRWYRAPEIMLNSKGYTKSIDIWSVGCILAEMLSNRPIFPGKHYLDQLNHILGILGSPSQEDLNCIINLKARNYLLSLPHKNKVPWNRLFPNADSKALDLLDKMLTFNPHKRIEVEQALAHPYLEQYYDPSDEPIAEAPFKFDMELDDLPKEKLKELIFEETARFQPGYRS

This test has as its target Mitogen-activated protein kinase 1 (Homo sapiens, UniProt P28482).

What is called IC50 is the point on the concentration scale where inhibition reaches its midpoint. Regarding `O=c1cc(-c2ccnc(N[C@@H]3C[C@@H]4C[C@H]3CO4)n2)ccn1[C@H](CO)c1ccc(Cl)c(F)c1`, the IC50 turned out to be 6.3 nM.
